Measured values reported in ChEMBL document CHEMBL5344481, “Design, synthesis and biological evaluation of rhein-piperazine-furanone hybrids as potential anticancer agents” (RSC Med Chem, 2024).

Experiments:
Homo sapiens [1] = organism: Homo sapiens; test: Selectivity index, ratio of IC50 for human KGN cells to IC50 for human SK-OV-3 cells
Homo sapiens [2] = organism: Homo sapiens; test: Selectivity index, ratio of IC50 for human WI-38 cells to IC50 for human PC-9 cells
Homo sapiens [3] = organism: Homo sapiens; test: Selectivity index, ratio of IC50 for human HEK-293T cells to IC50 for human 786-O cells

- Ratio IC50 (Homo sapiens [1]): 1
- Ratio IC50 (Homo sapiens [2]): 12
- Ratio IC50 (Homo sapiens [3]): 0
Structure (SMILES): COC1OC(=O)C(Cl)=C1N1CCN(C(=O)c2cc(OC(C)=O)c3c(c2)C(=O)c2cccc(OC(C)=O)c2C3=O)CC1 (stereo not drawn)
